Reference: ChEMBL document CHEMBL1140091, “2-aminothienopyridazines as novel adenosine A1 receptor allosteric modulators and antagonists” (J Med Chem, 2008)
The source made the active and inactive calls. The rule behind the calls is not given here.

Chains of the proteins cited; added tags and fusions are not shown.
UniProt P30542, whole entry: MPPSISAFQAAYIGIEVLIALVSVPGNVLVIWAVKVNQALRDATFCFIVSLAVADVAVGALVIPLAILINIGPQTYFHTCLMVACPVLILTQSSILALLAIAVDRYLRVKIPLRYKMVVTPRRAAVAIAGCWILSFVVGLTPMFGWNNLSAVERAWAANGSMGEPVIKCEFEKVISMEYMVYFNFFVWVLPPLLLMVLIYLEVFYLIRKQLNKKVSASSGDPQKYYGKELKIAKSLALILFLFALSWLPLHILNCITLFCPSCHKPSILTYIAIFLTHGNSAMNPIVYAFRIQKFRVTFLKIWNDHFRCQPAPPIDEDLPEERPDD

Biological target: Adenosine receptor A1 (Homo sapiens, UniProt P30542)
Test: Antagonist activity at human adenosine A1 receptor expressed in FlpIn-CHO cells assessed as inhibition of R-PIA-mediated ERK1/2 phosphorylation
Type: functional, cell-based

Activity	Structure (SMILES)
inactive	Cc1sc(N)c(C(=O)c2cccc(C(F)(F)F)c2)c1C
inactive	Nc1scc2c(C(=O)O)nn(-c3ccccc3)c(=O)c12
